Measured values as given in patent US20090124555A1, “USE OF HISTOGRANIN AND HISTOGRANIN-LIKE COMPOUNDS AS INHIBITORS OF P2X7 RECEPTOR FUNCTION AND AS ANTI-ARTHRITIC AGENTS” (priority 2005, published 2009).

Experiments:
[1] = biological target: P2X7 receptor (on rat alveolar macrophages) (rat) (UniProt Q64663); test: cell-based or functional assay
[2] = biological target: P2X7 receptor (in mice) (mouse) (UniProt Q9Z1M0); test: cell-based or functional assay

half-maximal inhibition of ATP-induced IL-1.beta release from LPS-primed macrophages [1]: 1 nM | percent annexin-V positive cells after BzATP (PS flip), C-4 at 10^-8 M (% annexin-V positive cells) [1]: 5 | percent annexin-V positive cells after BzATP (PS flip), C-4 at 10^-9 M (% annexin-V positive cells) [1]: 12 | percent apoptotic macrophages after ATP (Hoechst / propidium iodide staining), C-4 at 10^-10M (% apoptotic macrophages) [1]: 54 | IL-6 in peritoneal lavage of LPS-primed, ATP-challenged mice, C-4 0.1 mg i.p. (16 ng/ml without C-4) [2]: 9.5 ng/mL | IL-6 in peritoneal lavage of LPS-primed, ATP-challenged mice, C-4 0.3 mg i.p. (16 ng/ml without C-4) [2]: 7 ng/mL
Substance: [Val^1, Val^2, Arg^7]HN (peptide)
